{
  "source": "PubChem BioAssay (NCI)",
  "assay_in_all_cases": "NCI anticancer screen, dose series, 48 h",
  "key": {"MOLT-4 leukemia": {"tested_on": "MOLT-4 leukemia"}, "SW-620 colon": {"tested_on": "SW-620 colon"}, "IGROV1 ovarian": {"tested_on": "IGROV1 ovarian"}, "HS 578T breast": {"tested_on": "HS 578T breast"}, "SF-268 CNS": {"tested_on": "SF-268 CNS"}, "NCI-H522 lung": {"tested_on": "NCI-H522 lung"}, "SK-MEL-5 melanoma": {"tested_on": "SK-MEL-5 melanoma"}, "T-47D breast": {"tested_on": "T-47D breast"}, "UO-31 renal": {"tested_on": "UO-31 renal"}, "NCI-H23 lung": {"tested_on": "NCI-H23 lung"}, "LOX IMVI melanoma": {"tested_on": "LOX IMVI melanoma"}, "SN12C renal": {"tested_on": "SN12C renal"}, "MDA-MB-231 breast": {"tested_on": "MDA-MB-231 breast"}, "A549 NSCLC": {"tested_on": "A549 NSCLC"}, "M14 melanoma": {"tested_on": "M14 melanoma"}, "SR leukemia": {"tested_on": "SR leukemia"}, "TK-10 renal": {"tested_on": "TK-10 renal"}, "SK-MEL-28 melanoma": {"tested_on": "SK-MEL-28 melanoma"}, "OVCAR-4 ovarian": {"tested_on": "OVCAR-4 ovarian"}, "ACHN renal": {"tested_on": "ACHN renal"}, "HCT-116 colon": {"tested_on": "HCT-116 colon"}, "SK-MEL-2 melanoma": {"tested_on": "SK-MEL-2 melanoma"}, "MALME-3M melanoma": {"tested_on": "MALME-3M melanoma"}, "NCI-H226 lung": {"tested_on": "NCI-H226 lung"}, "MCF7 breast": {"tested_on": "MCF7 breast"}, "OVCAR-3 ovarian": {"tested_on": "OVCAR-3 ovarian"}, "NCI/ADR-RES ovarian": {"tested_on": "NCI/ADR-RES ovarian"}, "HOP-62 NSCLC": {"tested_on": "HOP-62 NSCLC"}, "SF-295 CNS": {"tested_on": "SF-295 CNS"}},
  "note": "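Cultured in 96-well plates, cells were exposed to test compound for 48 hours across five concentrations. GI50 = concentration required for 50% inhibition of growth. TGI: total growth inhibition.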",
  "data": [
    {"smiles": "CCP1(=O)N(C)[C@@H]2CCCC[C@H]2N1C", "values": [
      {"measurement": "GI50", "setting": "MOLT-4 leukemia", "value": "> 100", "unit": "µM"},
      {"measurement": "TGI", "setting": "MOLT-4 leukemia", "value": "> 100", "unit": "µM"},
      {"measurement": "GI50", "setting": "SW-620 colon", "value": "> 100", "unit": "µM"},
      {"measurement": "TGI", "setting": "SW-620 colon", "value": "> 100", "unit": "µM"},
      {"measurement": "GI50", "setting": "IGROV1 ovarian", "value": 0.0436, "unit": "µM"},
      {"measurement": "TGI", "setting": "IGROV1 ovarian", "value": 5.2, "unit": "µM"},
      {"measurement": "GI50", "setting": "HS 578T breast", "value": "> 100", "unit": "µM"},
      {"measurement": "TGI", "setting": "HS 578T breast", "value": "> 100", "unit": "µM"},
      {"measurement": "GI50", "setting": "SF-268 CNS", "value": "> 100", "unit": "µM"},
      {"measurement": "TGI", "setting": "SF-268 CNS", "value": "> 100", "unit": "µM"},
      {"measurement": "GI50", "setting": "NCI-H522 lung", "value": "> 100", "unit": "µM"},
      {"measurement": "TGI", "setting": "NCI-H522 lung", "value": "> 100", "unit": "µM"},
      {"measurement": "GI50", "setting": "SK-MEL-5 melanoma", "value": "> 100", "unit": "µM"},
      {"measurement": "TGI", "setting": "SK-MEL-5 melanoma", "value": "> 100", "unit": "µM"},
      {"measurement": "GI50", "setting": "T-47D breast", "value": "> 100", "unit": "µM"},
      {"measurement": "TGI", "setting": "T-47D breast", "value": "> 100", "unit": "µM"},
      {"measurement": "GI50", "setting": "UO-31 renal", "value": "> 100", "unit": "µM"},
      {"measurement": "TGI", "setting": "UO-31 renal", "value": "> 100", "unit": "µM"},
      {"measurement": "GI50", "setting": "NCI-H23 lung", "value": "> 100", "unit": "µM"},
      {"measurement": "TGI", "setting": "NCI-H23 lung", "value": "> 100", "unit": "µM"},
      {"measurement": "GI50", "setting": "LOX IMVI melanoma", "value": "> 100", "unit": "µM"},
      {"measurement": "TGI", "setting": "LOX IMVI melanoma", "value": "> 100", "unit": "µM"},
      {"measurement": "GI50", "setting": "SN12C renal", "value": "> 100", "unit": "µM"},
      {"measurement": "TGI", "setting": "SN12C renal", "value": "> 100", "unit": "µM"},
      {"measurement": "GI50", "setting": "MDA-MB-231 breast", "value": "> 100", "unit": "µM"},
      {"measurement": "TGI", "setting": "MDA-MB-231 breast", "value": "> 100", "unit": "µM"},
      {"measurement": "GI50", "setting": "A549 NSCLC", "value": "> 100", "unit": "µM"},
      {"measurement": "TGI", "setting": "A549 NSCLC", "value": "> 100", "unit": "µM"},
      {"measurement": "GI50", "setting": "M14 melanoma", "value": "> 100", "unit": "µM"},
      {"measurement": "TGI", "setting": "M14 melanoma", "value": "> 100", "unit": "µM"},
      {"measurement": "GI50", "setting": "SR leukemia", "value": "> 100", "unit": "µM"},
      {"measurement": "TGI", "setting": "SR leukemia", "value": "> 100", "unit": "µM"},
      {"measurement": "GI50", "setting": "TK-10 renal", "value": "> 100", "unit": "µM"},
      {"measurement": "TGI", "setting": "TK-10 renal", "value": "> 100", "unit": "µM"},
      {"measurement": "GI50", "setting": "SK-MEL-28 melanoma", "value": "> 100", "unit": "µM"},
      {"measurement": "TGI", "setting": "SK-MEL-28 melanoma", "value": "> 100", "unit": "µM"},
      {"measurement": "GI50", "setting": "OVCAR-4 ovarian", "value": "> 100", "unit": "µM"},
      {"measurement": "TGI", "setting": "OVCAR-4 ovarian", "value": "> 100", "unit": "µM"},
      {"measurement": "GI50", "setting": "ACHN renal", "value": "> 100", "unit": "µM"},
      {"measurement": "TGI", "setting": "ACHN renal", "value": "> 100", "unit": "µM"},
      {"measurement": "GI50", "setting": "HCT-116 colon", "value": "> 100", "unit": "µM"},
      {"measurement": "TGI", "setting": "HCT-116 colon", "value": "> 100", "unit": "µM"},
      {"measurement": "GI50", "setting": "SK-MEL-2 melanoma", "value": "> 100", "unit": "µM"},
      {"measurement": "TGI", "setting": "SK-MEL-2 melanoma", "value": "> 100", "unit": "µM"},
      {"measurement": "GI50", "setting": "MALME-3M melanoma", "value": "> 100", "unit": "µM"},
      {"measurement": "TGI", "setting": "MALME-3M melanoma", "value": "> 100", "unit": "µM"},
      {"measurement": "GI50", "setting": "NCI-H226 lung", "value": "> 100", "unit": "µM"},
      {"measurement": "TGI", "setting": "NCI-H226 lung", "value": "> 100", "unit": "µM"},
      {"measurement": "GI50", "setting": "MCF7 breast", "value": "> 100", "unit": "µM"},
      {"measurement": "TGI", "setting": "MCF7 breast", "value": "> 100", "unit": "µM"},
      {"measurement": "GI50", "setting": "OVCAR-3 ovarian", "value": "> 100", "unit": "µM"},
      {"measurement": "TGI", "setting": "OVCAR-3 ovarian", "value": "> 100", "unit": "µM"},
      {"measurement": "GI50", "setting": "NCI/ADR-RES ovarian", "value": "> 100", "unit": "µM"},
      {"measurement": "TGI", "setting": "NCI/ADR-RES ovarian", "value": "> 100", "unit": "µM"},
      {"measurement": "GI50", "setting": "HOP-62 NSCLC", "value": "> 100", "unit": "µM"},
      {"measurement": "TGI", "setting": "HOP-62 NSCLC", "value": "> 100", "unit": "µM"},
      {"measurement": "GI50", "setting": "SF-295 CNS", "value": "> 100", "unit": "µM"}
    ]}
  ]
}
